This assay can be described thus: Inhibitory activity against thrombin induced platelet aggregation.

As to `CC1CNc2c(cccc2S(=O)(=O)N[C@@H](CCCNC(=N)N)C(=O)N2CC[C@@H](C)C[C@@H]2C(=O)O)C1` (stereo partly specified), 52 nM corresponded to half-maximal inhibition (IC50).

Values taken from BindingDB's records for doi:10.1021/jm9603274 (R. W. Johnson Pharmaceutical Research Institute, 1996).
